## Ab-14 light chain CDR variants: yeast mating affinities

Antigen: PDVDLGDISGINAS, a 14-residue peptide of the SARS-CoV-2 spike HR2 region.

Parent: Ab-14, a human scFv built as VH, the linker GGGGSGGGGSGGGGS, VL. Only the CDRs of the light chain vary.
VH: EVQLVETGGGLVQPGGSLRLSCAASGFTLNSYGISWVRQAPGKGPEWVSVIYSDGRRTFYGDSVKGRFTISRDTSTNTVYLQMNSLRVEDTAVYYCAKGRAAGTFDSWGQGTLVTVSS
VL: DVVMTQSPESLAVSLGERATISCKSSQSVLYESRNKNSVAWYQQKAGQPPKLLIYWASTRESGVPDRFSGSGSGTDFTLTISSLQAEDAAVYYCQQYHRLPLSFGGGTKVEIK

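The parent was found by panning a naive human phage display library on the peptide. The variants were designed computationally from a first round of random CDR variants and then made and measured. Their group label is 14L_En_Gibbs (En: ensemble of fine-tuned language models; Gibbs: Gibbs sampling). The assay is AlphaSeq: two haploid yeast populations carry antibody and antigen on their surface. Mating (16 h, 30 °C) was followed by selection of diploids and sequencing of their barcodes. A regression on co-assayed BCL2-family reference pairs converts the normalised counts of each replicate to an apparent Kd. The assay was run in six technical replicates.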

The parent's light chain CDRs are KSSQSVLYESRNKNSVA, WASTRES, QQYHRLPLS; each variant's own CDRs replace them letter for letter. The read-out is the apparent dissociation constant on a log10 scale (nM): the lower, the stronger. "nd" marks a missing value. The strain was present, yet no cells mated with the target were sequenced in that replicate, which points to weak or no binding. A sequence measured in both rounds can read differently, since the two assays cover different ranges. Nonspecific signal, from three strains lacking the peptide, appeared in 4% of pairings of all light chain designs, centred on 2.64 (5% of these signals below 1.59); values are not corrected for it. For each scFv, signals with the empty controls are counted beside the result. In the paper, a design with two or fewer of six values counts as a poor binder.

For LIMKFMSQEGSARNNIA | GDTKLAQ | QHYHRLPLS, the assay gave nd, nd, nd, nd, nd, nd (controls 0 of 18).
For QFDTNLQYMGANKNSVA | EMTERTT | QQYHRLPIE, the assay gave 0.78, 1.08, 0.82, 1.26, 1.47, 1.49 (controls 1 of 18).
For TVKAELEMFAQDKHSVA | EAVERAS | QQYHRLPLG, the assay gave 0.76, 0.76, 0.76, 0.46, 0.58, 1.05 (controls 0 of 18).
For QLDWYNSTATAAANSVA | GVAQRMN | QQYMRLPLM, the assay gave 0.50, 0.10, -0.17, 0.01, 0.00, 0.04 (controls 2 of 18).
For QLAVDRLQEYEMGDAIA | GKTLRVD | QQYARLPLS, the assay gave 0.61, 0.30, 0.32, 0.40, 0.42, 0.64 (controls 1 of 18).
For QVQYHPGESLRHTSSIA | DVNIKDM | QQYSRLPLS, the assay gave 0.20, 0.41, 0.12, 0.38, 1.11, 0.39 (controls 1 of 18).
For KLTHLSFVHDRQKNNVA | DLERKAA | QQYNRLPLT, the assay gave 0.73, 0.27, 0.54, 0.27, 0.30, 0.53 (controls 0 of 18).
For GILSQMDGTSAYKENIA | NEAERLR | QQYQRLPLT, the assay gave 0.12, 1.04, 0.86, 0.50, 0.27, 1.21 (controls 0 of 18).
For KISFWSYRGSQWHNNIA | EGSQRAE | QQYSRLPLN, the assay gave 1.05, 1.87, 0.83, 1.34, 1.47, 1.32 (controls 0 of 18).
For MITAAMNAYGGNRSNVA | DKEISVN | QQYHHLPLS, the assay gave 1.83, 1.49, 1.14, 1.39, 0.98, 1.45 (controls 1 of 18).
For ALSINYPQQHGMNDSIA | HSDRREA | QQYYRLPLA, the assay gave 0.33, 0.79, 0.43, 0.71, 0.53, 1.27 (controls 0 of 18).
For RLLDWYYGQTAMDSNIA | DQALEMD | QQYSRLPLT, the assay gave 1.32, nd, nd, nd, nd, nd (controls 0 of 18).
For NLMSHQSEISVWKYSIA | EASIRLS | QQYFRLPLA, the assay gave nd, nd, 1.39, nd, nd, nd (controls 0 of 18).
For MMLSHSLEVQNIQNAVA | EASMVYD | QQYVSLPLS, the assay gave nd, nd, nd, nd, nd, nd (controls 0 of 18).
For RLDFQDLMWSYDANNIA | GATLSIE | QQYGRLPLT, the assay gave nd, 1.17, 0.67, 0.26, 0.76, 1.47 (controls 0 of 18).
For HITSNMFGTGGVTSNVA | ETNTLMV | QQYSKLPLM, the assay gave 0.40, 0.03, 0.57, 0.25, -0.09, 0.03 (controls 1 of 18).
For ELQWQQYGENAMEAAIA | NEGTRHQ | QQYSRLPLT, the assay gave 0.73, 1.05, 1.19, 0.32, 0.77, 0.82 (controls 0 of 18).
For KIQQTHVGNEKKMESIA | QGDQRCQ | QSYDRLPLS, the assay gave 1.11, 1.10, 1.02, 0.99, 0.85, 1.03 (controls 0 of 18).
For KLSWKSLHGDLRWSAVA | NEVVRLA | QQYFRLPIQ, the assay gave nd, nd, nd, nd, nd, nd (controls 0 of 18).
For QIEWHNSGLLEAKNSVA | GVEHRMN | QQYMRLPLE, the assay gave 0.09, -0.31, -0.11, -0.23, 0.15, 0.27 (controls 1 of 18).
For NITQQGDNMGDQRANVA | NGETLEH | QQYAHLPLL, the assay gave 1.54, 1.39, 0.99, 1.03, 0.74, 1.34 (controls 0 of 18).
For TLMMDPTEQRDSKHAIA | DNNQRDR | QQYHRLPLS, the assay gave 1.17, 0.66, 0.69, 0.63, 0.55, 0.64 (controls 1 of 18).
For MLTMFANENAGKSSNIA | DTNQLTT | QQYQRLPFM, the assay gave 0.08, 0.25, 0.23, 0.21, 0.23, 0.25 (controls 1 of 18).
For QLDQAYRVGGLWKQSIA | HGSMRVQ | QCYERLPLS, the assay gave 2.04, 4.49, 1.58, nd, 1.77, 1.90 (controls 1 of 18).
For RMNKFMSGATEAKNSMA | GAEHRAQ | QSYHRLPLS, the assay gave 0.57, 0.62, 0.15, 0.54, 0.59, 0.48 (controls 1 of 18).
For QINLQGLSAALNNRAVA | AKNLRVD | QQYNRLPLS, the assay gave 0.99, 1.26, 0.72, 0.48, 1.01, 0.73 (controls 1 of 18).
For QLEWLEINGQSVGNSIA | ANVQEQE | QQYFRLPLT, the assay gave nd, 1.68, 1.76, nd, nd, 1.86 (controls 0 of 18).
For SISYLDNRGSQGHNNIA | EGSQRAE | QQYIRLPLN, the assay gave 0.25, 0.07, 0.28, -0.06, -0.13, -0.02 (controls 1 of 18).
For FLHGNIEYGNKNWSAIA | ENTIRVD | QYYQHLPLA, the assay gave 3.04, 2.64, 2.61, 2.55, 2.01, 2.57 (controls 2 of 18).
For KLGNQERMNGMANQNVA | AMNTVVD | QEYHRLPLI, the assay gave 0.75, 0.32, 0.20, 0.38, 0.43, 0.59 (controls 1 of 18).
For QVQYHPGESLRHASSIA | DVNIKEM | QQYSRLPLS, the assay gave 1.35, 0.84, 0.77, 0.63, 0.40, 0.83 (controls 2 of 18).
For NFGQKMALYTGDRYSIA | DATVKAD | QQYSRLPLT, the assay gave 0.23, 0.13, -0.06, 0.36, 0.03, 0.19 (controls 2 of 18).
For YVSSQAAQDRNQQQSIA | GVDYREK | QQYYHLPLS, the assay gave nd, 1.65, nd, nd, 1.77, 1.64 (controls 0 of 18).
For KFAYQADMYGAQCNNVA | HADIREP | QQYFKLPLT, the assay gave 1.36, 0.93, 1.40, 1.91, 1.42, 1.62 (controls 1 of 18).
For HVSSMDMTDGGIIKSVA | GDKETER | QQYMRLPLS, the assay gave 2.06, nd, 1.11, 1.95, 1.10, 1.21 (controls 0 of 18).
For VFQQQWDGNTLTNSSVA | NVDERME | QQYNRLPLM, the assay gave nd, nd, 2.75, nd, 3.21, 2.45 (controls 1 of 18).
For SLAYTQHFGQSGGSAVA | EVQMREQ | QQYFRLPLG, the assay gave 1.81, 1.22, 1.43, 0.92, 1.10, 1.08 (controls 0 of 18).
For KLDLLNGEMDKWGDNIA | EASTAGM | QHYWRLPLS, the assay gave nd, nd, 1.96, 0.74, nd, 2.89 (controls 0 of 18).
For NVKAMLNMWAPDKHNVA | EADERAS | QQYSRLPLG, the assay gave 0.37, 0.35, 0.19, 0.25, 0.25, 0.19 (controls 1 of 18).
For HVNHEQLDYKNYENNIA | HASQRLY | QQYSHLPLS, the assay gave 0.44, 0.57, 0.37, 0.04, 0.04, 0.13 (controls 0 of 18).
For QLSHYKHENMGKWANVA | EMTIREK | QQYAHLPLN, the assay gave nd, nd, nd, nd, nd, nd (controls 0 of 18).
For KLSWDCTTDLNRMSSIA | ESEVAND | QQYAHLPLT, the assay gave 1.40, 1.04, 1.13, 1.07, 1.51, 1.29 (controls 2 of 18).
For NITYAAEQLQRIDSNVA | AGSARCR | QQYYRLPLS, the assay gave 0.67, 0.21, 0.31, 0.25, 0.17, 0.53 (controls 1 of 18).
For VMFMGLYWNNDEHYAIA | DVTMREK | QQYHRLPLM, the assay gave nd, nd, nd, nd, nd, nd (controls 0 of 18).
For NLVERAQMQDSGRQAIA | NAHARAT | QQYFHLPLT, the assay gave 0.39, 0.39, 0.34, 0.26, 0.32, 0.76 (controls 1 of 18).

The measurements come from Li et al. 2023 (doi:10.1038/s41467-023-39022-2) through the FLAb antibody collection.